Values of other authors in US5026728A, “Treatment of arthritis and inflammation using N,N-dimethylglycine” (Foodscience Corporation, priority 1989, dated 1991).
Counter-ions that a name gives are not always drawn. Like-named read-outs stand apart in the source and are kept apart here.

Conditions: cited from earlier work

In the case of `CN(C)CC(=O)O` [DMG-HCl], the “acute LD50” value (intraperitoneal) is listed as 6 g/kg and the “acute LD50” value (oral, neutralized aqueous solution, rat) is listed as 7.4 g/kg of body weight.
